Reference: publication PMC6456411 (Angewandte Chemie (International ed. in English), 2019)

Tested on: co-culture of HS-5 and Saos-2 cells
Assay: Spheroid formation and live-dead assay in co-culture of HS-5 and Saos-2 cells
Format: cell-based
Settings: treated for 48 h; 1P:2 300 μM, ratio 1:1

NapFFpYGGaa [1P]
morphology of co-cultured HS-5 and Saos-2 cells: remain a 2D cell sheet
